{
  "sequences": {"note": "Amino acid sequences for entries named in this document (tags omitted). A change or cut given only in a name is not applied to a line headed by its entry.", "UniProt P29597": "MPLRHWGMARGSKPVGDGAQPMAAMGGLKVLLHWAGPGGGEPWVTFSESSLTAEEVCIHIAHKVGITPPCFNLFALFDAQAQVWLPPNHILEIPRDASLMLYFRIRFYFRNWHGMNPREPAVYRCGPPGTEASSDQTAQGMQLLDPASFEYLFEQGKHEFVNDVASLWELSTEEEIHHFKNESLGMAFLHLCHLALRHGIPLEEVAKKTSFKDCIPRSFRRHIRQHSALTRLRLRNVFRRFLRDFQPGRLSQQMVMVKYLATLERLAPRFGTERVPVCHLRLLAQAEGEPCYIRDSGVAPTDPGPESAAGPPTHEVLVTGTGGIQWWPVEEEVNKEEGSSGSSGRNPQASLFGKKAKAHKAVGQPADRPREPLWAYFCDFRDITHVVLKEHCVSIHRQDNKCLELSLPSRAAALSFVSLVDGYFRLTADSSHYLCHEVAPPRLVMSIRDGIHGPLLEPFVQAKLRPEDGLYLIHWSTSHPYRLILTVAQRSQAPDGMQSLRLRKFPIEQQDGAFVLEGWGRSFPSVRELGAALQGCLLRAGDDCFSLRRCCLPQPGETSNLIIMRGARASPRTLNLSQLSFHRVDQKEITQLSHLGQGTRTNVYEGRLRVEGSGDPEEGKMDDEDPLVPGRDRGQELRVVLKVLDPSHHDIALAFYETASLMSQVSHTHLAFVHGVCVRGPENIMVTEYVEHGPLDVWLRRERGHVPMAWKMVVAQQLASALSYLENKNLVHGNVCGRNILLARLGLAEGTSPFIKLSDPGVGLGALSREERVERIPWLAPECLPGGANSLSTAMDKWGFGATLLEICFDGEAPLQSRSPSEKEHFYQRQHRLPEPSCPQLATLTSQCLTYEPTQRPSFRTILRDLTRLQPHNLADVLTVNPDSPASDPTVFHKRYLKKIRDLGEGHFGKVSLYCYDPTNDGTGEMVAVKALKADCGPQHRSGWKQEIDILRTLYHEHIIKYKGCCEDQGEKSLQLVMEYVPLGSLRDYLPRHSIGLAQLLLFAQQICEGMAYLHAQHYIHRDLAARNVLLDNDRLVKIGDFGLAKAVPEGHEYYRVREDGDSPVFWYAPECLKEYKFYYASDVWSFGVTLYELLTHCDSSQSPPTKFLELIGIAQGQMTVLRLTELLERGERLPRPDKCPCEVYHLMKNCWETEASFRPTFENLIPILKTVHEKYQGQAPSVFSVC"},
  "source": "paper PMC7614775",
  "about": "(Nature chemical biology, 2022)",
  "target": "TYK2 phosphorylation (pTYK2) (Homo sapiens, UniProt P29597)",
  "assay": "TYK2 phosphorylation western blot in 22Rv1 cells expressing TYK2 variants",
  "format": "cell-based",
  "conditions": "WT-TYK2",
  "data": [
    {"substance": "deucravacitinib [BMS-986165, reference compound]", "values": [
      {"measurement": "effect on phosphorylation of the TYK2 activation loop", "value": "suppressed"}
    ]}
  ]
}
